We go through 19 compounds from PubChem BioAssay AID602481 (Broad Institute, 2012).

The list shows a part of the results, in another mix than the full data. Some results for these compounds are left out of this collection, so the calls shown say nothing about other tests. The source made the active and inactive calls. No stated cut-off is given here; in the data, active means inhibition above about 40%; inconclusive means no clear call, values can overlap the other calls; inactive means below that.

What is called inhibition is the change of the read-out against control, counted positive when it falls.

This assay has as its system 7,8-diaminopelargonic acid synthase BioA (Mycobacterium tuberculosis). Put plainly: M. tuberculosis BioA enzyme inhibitors, primary screen, biochemical, plate reader, single point, HTS (AID 602481). The note with it: purified M. tuberculosis BioA enzyme, at 9.99 µM, stronger effect = higher value.
As for `CN(C)C1(CNC(=O)c2ccc(Br)cc2)CCCCC1`, the inhibition was inactive: 7.42%.

As to `COc1cc(C(=O)NCC2(N(C)C)CCCCC2)c([N+](=O)[O-])cc1OC`, the inhibition is inactive: -2.46%.

Turning to `COc1ccc(Cl)cc1C(=O)NCC1(N(C)C)CCCCC1`, the inhibition is inactive: -0.0785%.

Regarding `O=C(NCC1(N2CCCCC2)CCCCC1)c1cccc(Cl)c1`, the inhibition is inactive: 3.97%. On to `COc1ccc(Br)c(C(=O)NCC2(N3CCCCC3)CCCCC2)c1`, for which the inhibition is inactive: -1.97%. Regarding `C=C(C)C#CC(O)(C(=O)OC1CCN(C)CC1)c1ccccc1` (centres undefined), the inhibition was inactive: -0.751%.

Take `CN(C)c1cccc(C(=O)NCC2(N(C)C)CCCCC2)c1`: the inhibition is inactive: 0.0665%. Consider `O=C(OCCN1CCCC1)C(O)(c1ccccc1)c1ccccc1`, for which the inhibition was inactive: -0.133%. With `CC(C)Oc1ccc(C(=O)NCC2(N(C)C)CCCCC2)cc1`, the inhibition was inactive: -2.14%.

Consider `CN1[C@@H]2CC[C@H]1CC(OC(=O)C(O)(c1ccccc1)c1ccccc1)C2` (some centres undefined), for which the inhibition was inactive: -1.1%. The figure for `CC(C)N1C(=O)CC2(CCN(CCOC(=O)C(O)(c3ccccc3)c3ccccc3)CC2)C1=O` is inactive: 0.508%; for `COc1cc(SC)ccc1C(=O)NCC1(N(C)C)CCCCC1` it is inactive: 0.87%. Under `CCN(CC)CC(C)C(C)OC(=O)C(O)(c1ccccc1)c1ccccc1` (centres undefined) stands inactive: -1.64%; under `Cc1ccc(C(=O)NCC2(N3CCCCC3)CCCCC2)cc1`, inactive: -1.05%; under `CN(C)c1ccc(C(=O)NCC2(N(C)C)CCCCC2)cc1`, inactive: 1.19%. The figure for `O=C(NCC1(N2CCCCC2)CCCCC1)c1cc(F)c(F)cc1Cl` is inactive: 1.25%.

On to `O=C(NCC1(N2CCCCC2)CCCCC1)c1cccc(Br)c1`, for which the inhibition was inactive: -0.573%. Take `Cc1cc(C(=O)NCC2(N3CCCCC3)CCCCC2)ccc1[N+](=O)[O-]`: the inhibition is inactive: -0.811%. `COc1ccc(C(=O)NCC2(N(C)C)CCCCC2)cc1`: the inhibition is inactive: 2.04%.
